Experimental data published in PubChem BioAssay AID504692 (The Scripps Research Institute Molecular Screening Center, 2011).
The list shows a part of the results, in another mix than the full data. The source made the active and inactive calls. Rule as the data show it: active = activation mostly above about 9.5% (no sharp cut-off); inactive = mostly below about 7.6%.

The chains behind the UniProt entries cited, without tags or fusion partners.
UniProt P47898, whole entry, looked up: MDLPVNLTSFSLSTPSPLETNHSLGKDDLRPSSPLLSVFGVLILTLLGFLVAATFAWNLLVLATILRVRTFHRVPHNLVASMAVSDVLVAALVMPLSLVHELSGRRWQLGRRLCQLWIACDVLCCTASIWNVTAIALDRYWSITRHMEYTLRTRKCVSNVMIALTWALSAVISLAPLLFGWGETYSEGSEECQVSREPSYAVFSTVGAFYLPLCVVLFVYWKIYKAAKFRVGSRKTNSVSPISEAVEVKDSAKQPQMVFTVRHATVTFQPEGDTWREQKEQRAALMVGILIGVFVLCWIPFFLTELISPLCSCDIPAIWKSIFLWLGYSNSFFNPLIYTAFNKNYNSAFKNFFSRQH

Each compound was assayed against 5-hydroxytryptamine receptor 5A (Homo sapiens) (UniProt P47898) (assay: activation of human 5-HT5A receptor – cell-based, luminescence, full-deck HTS, counter-screen for OPRM1-OPRD1 heterodimer agonist project, primary screen (AID 504692;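 also: 0% = cells with vehicle only and 100% = reference agonist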)). Conditions: HTR5A agonist assay, at 9.3 µM, hits give high values.
For `O=P(Nc1nccs1)(Oc1ccccc1)Oc1ccccc1`, the activation was inactive: 8.31%.
In the case of `CC(C)c1ccc(NC(=O)C2CC(=O)Nc3nc4ccccc4n32)cc1` (centres undefined), the activation is reported as inactive: -2.74%.
`CCc1nc2ccccc2n1CC(=O)Nc1cc(C)on1` was tested, and the activation was inactive: 7.1%.
In the case of `Cc1nc2ccccc2n1CC(=O)N/N=C/c1cccnc1`, the activation is reported as inactive: 4.53%.
In the case of `CCN(CC)CCn1c(C)nc2ccccc21`, the activation is reported as inactive: 5.09%.
In the case of `Cn1c(=O)c2c(ncn2CC(=O)N2CCN(S(=O)(=O)c3ccc(Cl)cc3)CC2)n(C)c1=O`, the activation is reported as inactive: 1.42%.
In the case of `O=P(Nc1nccs1)(c1ccccc1)c1nc2ccccc2s1` (centres undefined), the activation is reported as inactive: 0.32%.
In the case of `CCOC(=O)c1ccccc1NC(=O)Cn1cnc2c1c(=O)n(C)c(=O)n2C`, the activation is reported as inactive: 2.66%.
In the case of `COCCN1CCn2c(nc3cc(NC(=O)NC4CCCCC4)ccc32)C1`, the activation is reported as inactive: -0.8%.
With `NC(=O)Cn1c(-c2nonc2N)nc2ccccc21` the activation was inactive: 1.59%.
For `Cc1ccc2c(c1)C1CN(C)CCC1N2C(=O)c1cn(-c2ccccc2)nc1-c1ccccc1` (centres undefined), the activation was inactive: -1.15%.
With `Nc1nonc1-c1nc2ccccc2n1CC(=O)N/N=C/c1ccc(-c2cccc(C(=O)O)c2)o1` the activation was inactive: -3.11%.
With `O=C(O)COc1ccc([As](=O)(O)O)cc1[N+](=O)[O-]` the activation was inactive: 2.77%.
With `Nc1ccccc1[As](=O)(O)c1ccccc1` the activation was inactive: 7.78%.
`O=C(Cn1cnc2ccccc21)N/N=C/c1ccc([N+](=O)[O-])cc1` was tested, and the activation was inactive: 0.91%.
In the case of `CCOC(=O)CNC(=S)N1CCn2c(nc3ccccc32)C1`, the activation is reported as inactive: 0.72%.
For `Cn1c(=O)c2c(ncn2CC(=O)N/N=C/c2cn[nH]c2-c2ccc(F)cc2)n(C)c1=O`, the activation was inactive: -1.3%.
For `Cn1c(=O)c2c(ncn2CC(=O)N/N=C/C=C/c2ccco2)n(C)c1=O`, the activation was inactive: -5.72%.
`O=C(C1CCN(S(=O)(=O)c2cnc[nH]2)CC1)N1CCn2c1nc1ccccc12` was tested, and the activation was inactive: -11.2%.
`CCOC(=O)C1CCN(C(=O)CC2C(=O)N(Cc3ccccc3)C(C)c3nc4ccccc4n32)CC1` (centres undefined) was tested, and the activation was inactive: -0.16%.
For `Cc1nc2ccccc2n1CC(=O)NCc1ccccc1`, the activation was inactive: 3.1%.
With `COc1cccc(C(=O)CSc2nc3ccccc3n2CC(=O)N(C(C)C)C(C)C)c1` the activation was inactive: -3.49%.
With `Cn1c(=O)n(Cc2ccc(F)cc2)c(=O)c2c1nc1n2CCN1Cc1ccco1` the activation was inactive: -4.09%.
For `CC(C)Sc1nc2ccccc2n1CC(=O)NCc1ccc2c(c1)OCO2`, the activation was inactive: -0.12%.
For `N=c1n(CCN2CCOCC2)c2ccccc2n1CC(O)COc1ccccc1` (centres undefined), the activation was inactive: -7.24%.
For `NC(=O)CC(NC(=O)Cc1cccc2ccccc12)c1ccc(NC2CCN(Cc3ccccc3)CC2)c([N+](=O)[O-])c1` (centres undefined), the activation was inactive: -3.95%.
For `NNC(=O)Cn1c(COc2ccc(Cl)cc2)nc2ccccc21`, the activation was inactive: -3.34%.
`COC(=O)[C@@H](Cc1ccccc1)NC(=O)Cn1cnc2c(SC)nc(N)nc21` was tested, and the activation was inactive: 1.35%.
In the case of `Fc1ccc2c(c1)nnn2C1CCN(Cc2nnnn2C2CCCCC2)CC1`, the activation is reported as inactive: 1.99%.
With `COC(CNC(=O)CC1C(=O)N(Cc2ccccc2)C(C)c2nc3ccccc3n21)OC` (centres undefined) the activation was inactive: 3.19%.
For `CCN(CC)CCCNC(=S)N1CCn2c(nc3ccccc32)C1`, the activation was inactive: 3.07%.
In the case of `CCCOP(=S)(Nc1nc(N)cc(=O)[nH]1)OCCC`, the activation is reported as inactive: 7.31%.
In the case of `O=C(CSc1nc2ccccc2n1CC(=O)N1CCOCC1)N1CCCC1`, the activation is reported as inactive: -5.85%.
For `CSCC[C@H](NC(=O)N1CCn2c1nc1ccccc12)C(=O)N1CCCCC1`, the activation was inactive: -2.55%.
In the case of `Cn1c(=O)n(CCc2ccccc2)c(=O)c2c1nc1n2CCN1Cc1ccco1`, the activation is reported as inactive: 1.86%.
In the case of `C[C@H](NC(=O)N1CCn2c1nc1ccccc12)C(=O)NCc1ccc(F)cc1`, the activation is reported as inactive: 2.84%.
`Cc1ccc2c(c1)C1CN(C)CCC1N2C(=O)c1ccccc1NS(=O)(=O)c1cccc(C(F)(F)F)c1` (centres undefined) was tested, and the activation was inactive: 4.15%.
For `Oc1ccc(CC2(N3CCCC3)CCCCC2)cc1`, the activation was inactive: -3.75%.
`NNC(=O)Cn1cnc2ccccc21` was tested, and the activation was inactive: 2.38%.
In the case of `O=C(Nc1nc2ccccc2n1CCN1CCOCC1)c1ccccc1`, the activation is reported as inactive: 1.37%.
`O=C(Cn1c(C(F)(F)F)nc2ccccc21)Nc1ccccc1N1CCOCC1` was tested, and the activation was inactive: 3.7%.
In the case of `COc1ccc(CNC(=O)Cn2cnc3c(OCc4ccccc4)ncnc32)cc1`, the activation is reported as inactive: 5.03%.
With `Cc1ccc(NCCc2c([N+](=O)[O-])cc([N+](=O)[O-])cc2[N+](=O)[O-])cc1` the activation was inactive: 4.36%.
`O=C(Cn1c(CO)nc2ccccc21)NCCc1ccccc1` was tested, and the activation was inactive: 1.83%.
For `Nc1cccc2c([As](=O)(O)O)cccc12`, the activation was inactive: 3.85%.
`c1ccc2c(c1)nc1n2CCN1` was tested, and the activation was inactive: -4.13%.
In the case of `CC(=O)Nc1nc2ccccc2n1CCN(C)C`, the activation is reported as inactive: 2.43%.
In the case of `Cc1ccc2c(c1)C1CN(C)CCC1N2C(=S)Nc1ccc(OC(F)F)cc1` (centres undefined), the activation is reported as inactive: -5%.
`O=C(Cn1cnc2c(NCc3ccccc3)ncnc21)NCC1CCCO1` (centres undefined) was tested, and the activation was inactive: 1.49%.
With `O=C(Cn1cnc2c(NCc3ccccc3)ncnc21)NCc1ccccn1` the activation was inactive: 0.92%.
`CC1CCC2C(=O)N(c3ccc(NC4CCN(Cc5ccccc5)CC4)c([N+](=O)[O-])c3)C(=O)C2C1` (centres undefined) was tested, and the activation was inactive: 2.78%.
With `CC(C)[C@H](NC(=O)N1CCn2c1nc1ccccc12)C(=O)N[C@@H](C(=O)O)c1ccccc1` the activation was inactive: 9.54%.
In the case of `CCCC(=O)Nc1nnc(/C=C/c2ccc(OC)cc2)s1`, the activation is reported as inactive: -1.61%.
For `CC(=O)Nc1ccc2c(c1)nc1n2CCN(C2CCCCC2)C1`, the activation was inactive: 1.39%.
In the case of `COc1cc(C2NCCC3(OCCO3)C2(C)C)cc(OC)c1OC` (centres undefined), the activation is reported as inactive: 6.88%.
`Cn1c(=O)n(CC(N)=O)c2ccccc21` was tested, and the activation was inactive: -6.35%.
For `CCN(CC)CCn1c(NC(=O)c2ccc(Cl)cc2)nc2ccccc21`, the activation was inactive: 3.02%.
In the case of `Cc1ccc2c(c1)C1CN(C)CCC1N2S(=O)(=O)c1cc(C(F)(F)F)ccc1Cl` (centres undefined), the activation is reported as inactive: 4.77%.
For `O=C(Cn1c(NCCO)nc2ccccc21)NCC1CCCO1` (centres undefined), the activation was inactive: -4.46%.
